In patent publication US6660742B2, “Compositions and methods of the use thereof achiral analogues of CC-1065 and the duocarmycins” (priority 2000, dated 2003):

Legend:
MCF7/ADR-RES = assay: NCI screen, MCF7/ADR-RES (Breast Cancer); assay type: cell-based, human; settings: read-out: LC50 (the source's name)
MDA-MB-231/ATCC = settings: read-out: LC50
[1] = favoring the natural (+)-isomer; cited from earlier work

Question: For O=C(Nc1cc(O)ccc1CCCl)c1cc2cc(NC(=O)c3cc4ccccc4o3)ccc2[nH]1 [Compound 1, 4-(2-Chloroethyl)-3-[5-(5-benzofuran-2-carboxamido)indole-2-carboxamido]phenol], which CC50 (MCF7/ADR-RES) is on record?
Answer: 8.7 µM

Question: What about the CC50 (A549/ATCC) of the same compound?
Answer: 24.8 µM

Question: And the CC50 (EKVX)?
Answer: 13.7 µM

Question: And the CC50 (HOP-62)?
Answer: 19.5 µM

Question: And the CC50 (HOP-92)?
Answer: 15.6 µM

Question: And the CC50 (NCI-H226)?
Answer: 44.4 µM

Question: And the CC50 (NCI-H23)?
Answer: 6.84 µM

Question: And the CC50 (NCI-H322M)?
Answer: 33 µM

Question: What about the CC50 (NCI-H522) of the same compound?
Answer: 9.33 µM

Question: What about the CC50 (HCC-2998) of the same compound?
Answer: 7.22 µM

Question: What about the CC50 (HCT-116) of the same compound?
Answer: 24.3 µM

Question: What about the CC50 (HCT-15) of the same compound?
Answer: 16.7 µM

Question: What about the CC50 (HT29) of the same compound?
Answer: 96.6 µM

Question: What about the CC50 (KM12) of the same compound?
Answer: 65 µM

Question: What about the CC50 (SW-620) of the same compound?
Answer: 53.5 µM

Question: What about the CC50 (SF-268) of the same compound?
Answer: 57.3 µM

Question: And the CC50 (SF-295)?
Answer: 24.2 µM

Question: What about the CC50 (SNB-19) of the same compound?
Answer: 51.6 µM

Question: And the CC50 (SNB-75)?
Answer: 59 µM

Question: What about the CC50 (LOX IMVI) of the same compound?
Answer: 42.2 µM

Question: And the CC50 (MALME-3M)?
Answer: 6.87 µM

Question: And the CC50 (M14)?
Answer: 6.81 µM

Question: And the CC50 (SK-MEL-2)?
Answer: 5.43 µM

Question: And the CC50 (SK-MEL-5)?
Answer: 6.44 µM

Question: And the CC50 (UACC-257)?
Answer: 6.18 µM

Question: What about the CC50 (UACC-62) of the same compound?
Answer: 6.18 µM

Question: What about the CC50 (IGROV1) of the same compound?
Answer: 7.77 µM

Question: What about the CC50 (OVCAR-3) of the same compound?
Answer: 10.9 µM

Question: What about the CC50 (OVCAR-4) of the same compound?
Answer: 13.5 µM

Question: And the CC50 (OVCAR-8)?
Answer: 8.12 µM

Question: And the CC50 (SK-OV-3)?
Answer: 26.7 µM

Question: And the CC50 (786-0)?
Answer: 98.3 µM

Question: And the CC50 (ACHN)?
Answer: 23.4 µM

Question: And the CC50 (CAKI-1)?
Answer: 27.7 µM

Question: And the CC50 (SN12C)?
Answer: 43.5 µM

Question: And the CC50 (TK-10)?
Answer: 19.9 µM

Question: What about the CC50 (PC-3) of the same compound?
Answer: 18.2 µM

Question: And the CC50 (DU-145)?
Answer: 27.4 µM

Question: What about the CC50 (MDA-MB-231/ATCC) of the same compound?
Answer: 49.6 µM

Question: And the CC50 (MDA-MB-435)?
Answer: 7.45 µM

Question: And the CC50 (MDA-N)?
Answer: 19.7 µM

Question: Which “difference in cytotoxicity between enantiomers” value [1] does the source give for CPI-CDPI1 here?
Answer: about 150 fold

Question: For CPI-PDE-I1, which “difference in cytotoxicity between enantiomers” value [1] is on record?
Answer: about 150 fold
